Structures can show the parent of a compound that is named as a salt. Where two headings read alike, the source gives them in different places.
What was measured:
[1] = test system: D(-)-Mandelate-Dehydrogenase; assay: Influence of various reagents and metal ions on the enzymatic activity (reduction of benzoyl formate); type: biochemical, Lactobacillus curvatus DSM 20019; conditions: for Relative Activity (%): enzyme incubated 5 minutes at 20° C. with reagent; for Inhibition of the enzyme (in words): 0.1 mM
[2] = test system: D(-)-Mandelate-Dehydrogenase; assay: Dependency of the speed of the dehydrogenation of D-2-hydroxycarboxylic acids on substrate and NAD+ concentration (Michaelis-Menten); type: biochemical, Lactobacillus curvatus DSM 20019; conditions: for Km / max. Initial Reaction Velocity Vmax (%) (relative to D(-)-Mandelate): dehydrogenation; for max. Initial Reaction Velocity Vmax (%) (relative to D(-)-Mandelate): 2-hydroxyacid 0.25 to 300 mM
[3] = test system: D(-)-Mandelate-Dehydrogenase; conditions: pH 7.0
[4] = read-out: KM Value, reduction, 0.25 mM NADH, 2-ketoacid 0.05 to 9 mM
[5] = reduction, 0.25 mM NADH, 2-ketoacid 0.05 to 9 mM

Structure (SMILES) | Relative Activity (%) ([1]; reagent 0.1 mM) | Relative Activity (%) ([1]; reagent 1 mM) | Relative Activity (%) ([1]; reagent 10 mM) | also measured
O[C@H](CS)[C@H](O)CS (racemic) [Dithiothreitol] | 100 | 100 | 100 | –
NC(=O)c1ccc[n+]([C@@H]2O[C@H](COP(=O)(O)OP(=O)([O-])OC[C@H]3O[C@@H](n4cnc5c(N)ncnc54)[C@H](O)[C@@H]3O)[C@@H](O)[C@H]2O)c1 [NAD^+] | – | – | – | Concentration at which the optimum reaction was reached ([2]; NAD+ varied 0.05 mM to 6 mM, pH 8.5, 2 mM D-(-)-mandelate): 3 mM; Km ([2]; Tris/HCl pH 8.5, 2 mM D-(-)-mandelate, read-out: KM value for NAD+): 200 µM
[K+].[K+].[O]=[Cr](=[O])([O-])[O][Cr](=[O])(=[O])[O-] [K2 Cr2 O7] | 99 | – | – | –
c1ccc(-c2ccccn2)nc1 [2.2-Dipyridil] | 100 | – | 86 | –
[Cl-].[Cl-].[Mg+2] [MgCl2] | – | 89 | 81 | –
[Cl-].[Cl-].[Zn+2] [ZnCl2] | – | 88 | – | –
[Ca+2].[Cl-].[Cl-] [CaCl2] | – | 90 | – | –
[Na+].[Na+].[O]=[Mo](=[O])([O-])[O-] [Na2 MoO4] | 90 | 88 | 73 | –
O=C(O)C(=O)c1ccccc1 [Benzoylformate, benzoyl formate] | – | – | – | Concentration at which the optimum speed of reaction was reached ([3]; benzoyl formate varied 0.02 mM to 8 mM, 0.25 mM NADH): 1.5 mM; Km [3, 4]: 220 µM; Km ([3]; read-out: KM value for the substrate benzoyl formate, reduction reaction, 0.25 mM NADH): 220 µM; Max. Initial Reaction Speed Vmax (%) (relative to Benzoyl formate) [3, 5]: 100%
O=S(=O)([O-])[O-].[Cu+2] [CuSO4] | 6.4 | 6.1 | – | Influence of inhibitors (in words) [1]: strongly inhibited; Inhibition of the enzyme (in words) [1]: strongly inhibited
O=C(O)C(O)c1ccccc1 (racemic) [D,L-Mandelate] | – | – | – | max. Initial Reaction Velocity Vmax (%) (relative to D(-)-Mandelate) ([2]; pH 8.0, 3 mM NAD+): 100%
[Cl][Ni][Cl] [NiCl2] | 95 | 91 | 68 | –
[Cl][Fe]([Cl])[Cl] [FeCl3] | 91 | – | – | –
NC(=O)CI [Iodacetamide] | 98 | 96 | 91 | –
O=C(O)C(O)Cc1ccccc1 (racemic) [D,L-Phenyllactate] | – | – | – | max. Initial Reaction Velocity Vmax (%) (relative to D(-)-Mandelate) ([2]; pH 8.0, 3 mM NAD+): 22%; Km ([2]; pH 8.0, 3 mM NAD+, D-enantiomer assumed 50% in D,L-compounds, read-out: KM-Value): 2500 µM
OCCS [2-Mercaptoethanol] | 96 | 93 | 90 | –
c1cnc2c(c1)ccc1cccnc12 [1.10 Phenanthroline] | 96 | 96 | – | –
NC(=O)C1=CN([C@@H]2O[C@H](COP(=O)(O)OP(=O)(O)OC[C@H]3O[C@@H](n4cnc5c(N)ncnc54)[C@H](O)[C@@H]3O)[C@@H](O)[C@H]2O)C=CC1 [NADH, nicotinamide-adenine-dinucleotide] | – | – | – | Concentration at which the optimum speed of reaction was reached ([3]; NADH varied 0.01 to 0.30 mM, 6 mM benzoyl formate): 0.25 mM; Km ([3]; read-out: KM value for NADH, reduction, 6 mM benzoyl formate): 36 µM
[Cl][Hg][Cl] [HgCl2] | 0 | 0 | 0 | Influence of inhibitors (in words) [1]: strongly inhibited; Inhibition of the enzyme (in words) [1]: strongly inhibited
O=S(=O)([O-])[O-].[Co+2] [CoSO4] | 97 | 91 | – | –
O=C(O)C(=O)Cc1ccc(O)c(O)c1 [3-(3'-4') Dihydroxyphenyl-pyruvate] | – | – | – | Km [3, 4]: 370 µM; Max. Initial Reaction Speed Vmax (%) (relative to Benzoyl formate) [3, 5]: 4%
[Cl][Cd][Cl] [CdCl2] | 93 | 82 | – | –

— patent US4824781A (Degussa Aktiengesellschaft, priority 1985, dated 1989)
